Holding throughout (assay): yeast surface display affinity sorting with deep sequencing, enrichments normalized to ddG of purified proteins
Assay [1] addresses human mesotrypsin (Homo sapiens) (UniProt P35030).
Assay [2] concerns the target bovine trypsin (Bos taurus) (UniProt P00760).
In assay [3] the target is bovine alpha-chymotrypsin (Bos taurus) (UniProt P00766).

In the case of R39I (from UniProt P00974), the ddG in assay [1] is -0.161 kcal/mol; in assay [2] it was 3.87 kcal/mol; in assay [3], -0.713 kcal/mol.
For R39K (from UniProt P00974) the same measures were -0.246 kcal/mol, 3.47 kcal/mol and 0.317 kcal/mol.
For R39L (from UniProt P00974), the ddG in assay [1] is -0.417 kcal/mol; in assay [2] it was 3.57 kcal/mol; in assay [3] it was -0.502 kcal/mol.
As to R39M (from UniProt P00974), the ddG in assay [1] was -0.321 kcal/mol; in assay [2], 3.61 kcal/mol; in assay [3], 0.153 kcal/mol.
For R39N (from UniProt P00974) the same measures were 1.08 kcal/mol, 4.06 kcal/mol and 0.645 kcal/mol.
For R39P (from UniProt P00974) the same measures were 1.82 kcal/mol, 3.87 kcal/mol and 1.27 kcal/mol.
For R39Q (from UniProt P00974) the same measures were -0.241 kcal/mol, 3.62 kcal/mol and 0.134 kcal/mol.
As to R39S (from UniProt P00974), the figures for the ddG in assay [1], in assay [2] and in assay [3] were 0.85 kcal/mol, 3.5 kcal/mol and 0.547 kcal/mol, respectively.
For R39T (from UniProt P00974), the figures for the ddG in assay [1], in assay [2] and in assay [3] were 0.309 kcal/mol, 3.93 kcal/mol and 0.466 kcal/mol, respectively.
In the same order, the values of R39V (from UniProt P00974) are -0.193 kcal/mol, 3.68 kcal/mol and -0.058 kcal/mol.
For R39W (from UniProt P00974) the same measures were -0.648 kcal/mol, 2.9 kcal/mol and -0.991 kcal/mol.
For R39Y (from UniProt P00974) the same measures were -0.302 kcal/mol, 3.31 kcal/mol and 0.338 kcal/mol.
For the substance T11A (from UniProt P00974), the ddG is 1.12 kcal/mol in assay [1], 2.03 kcal/mol in assay [2] and -0.433 kcal/mol in assay [3].
In the same order, the values of T11C (from UniProt P00974) are -0.0576 kcal/mol, 3.48 kcal/mol and 0.742 kcal/mol.
As for T11D (from UniProt P00974), the ddG in assay [1] was 0.603 kcal/mol; in assay [2] it was 3.52 kcal/mol; in assay [3], 0.695 kcal/mol.
Consider T11E (from UniProt P00974), for which the ddG was determined as 1.74 kcal/mol in assay [1], 2.48 kcal/mol in assay [2] and 0.643 kcal/mol in assay [3].
As to T11F (from UniProt P00974), the ddG in assay [1] worked out at 1.01 kcal/mol; in assay [2], 2.38 kcal/mol; in assay [3], 0.571 kcal/mol.
For T11G (from UniProt P00974) the same measures were 0.213 kcal/mol, 1.39 kcal/mol and -0.459 kcal/mol.
For T11H (from UniProt P00974) the same measures were 1.83 kcal/mol, 4.27 kcal/mol and 1.5 kcal/mol.
For T11I (from UniProt P00974) the same measures were -0.171 kcal/mol, 1.92 kcal/mol and 0.227 kcal/mol.
Take T11K (from UniProt P00974): the results for the ddG in assay [1], in assay [2] and in assay [3] were 0.752 kcal/mol, 3.71 kcal/mol and 0.964 kcal/mol, respectively.
Consider T11L (from UniProt P00974), for which the ddG was -0.321 kcal/mol in assay [1], 2.44 kcal/mol in assay [2] and 0.446 kcal/mol in assay [3].
In the same order, the values of T11M (from UniProt P00974) are -0.258 kcal/mol, 2.66 kcal/mol and 0.68 kcal/mol.
In the same order, the values of T11N (from UniProt P00974) are 0.953 kcal/mol, 2.58 kcal/mol and -1.66 kcal/mol.
As for T11P (from UniProt P00974), the ddG came to 1.07 kcal/mol in assay [1], 3.78 kcal/mol in assay [2] and 0.555 kcal/mol in assay [3].
For T11Q (from UniProt P00974) the same measures were 0.137 kcal/mol, 3.76 kcal/mol and 0.378 kcal/mol.
For T11R (from UniProt P00974) the same measures were 1.09 kcal/mol, 2.35 kcal/mol and 0.63 kcal/mol.
In the same order, the values of T11S (from UniProt P00974) are 1.04 kcal/mol, 2.96 kcal/mol and -0.564 kcal/mol.
In the case of T11V (from UniProt P00974), the ddG is -0.254 kcal/mol in assay [1], 2.44 kcal/mol in assay [2] and -0.442 kcal/mol in assay [3].
As to T11W (from UniProt P00974), the figures for the ddG in assay [1], in assay [2] and in assay [3] were 1.05 kcal/mol, 1.67 kcal/mol and -0.162 kcal/mol, respectively.
With T11Y (from UniProt P00974), the ddG was 1.58 kcal/mol in assay [1], 2.91 kcal/mol in assay [2] and 0.578 kcal/mol in assay [3].
In the same order, the values of V34A (from UniProt P00974) are -0.225 kcal/mol, 2.24 kcal/mol and -0.00599 kcal/mol.
In the same order, the values of V34C (from UniProt P00974) are -0.371 kcal/mol, 4.2 kcal/mol and 0.38 kcal/mol.
For V34D (from UniProt P00974) the same measures were -1.88 kcal/mol, 2.72 kcal/mol and 0.34 kcal/mol.
For the substance V34E (from UniProt P00974), the ddG is -0.216 kcal/mol in assay [1], 3.16 kcal/mol in assay [2] and 0.475 kcal/mol in assay [3].
In the same order, the values of V34F (from UniProt P00974) are 0.272 kcal/mol, 2.2 kcal/mol and -1.15 kcal/mol.
For V34G (from UniProt P00974) the same measures were -1.45 kcal/mol, 1.59 kcal/mol and -0.0891 kcal/mol.
For V34H (from UniProt P00974) the same measures were 0.433 kcal/mol, 1.62 kcal/mol and -0.975 kcal/mol.
On to V34I (from UniProt P00974), for which the ddG is -0.177 kcal/mol in assay [1], 2.21 kcal/mol in assay [2] and -1.11 kcal/mol in assay [3].
In the case of V34K (from UniProt P00974), the ddG in assay [1] was determined as 1.82 kcal/mol; in assay [2] it was 3.44 kcal/mol; in assay [3], 0.197 kcal/mol.
For V34L (from UniProt P00974) the same measures were 1.15 kcal/mol, 3.26 kcal/mol and -0.576 kcal/mol.
For V34M (from UniProt P00974) the same measures were 0.942 kcal/mol, 2.94 kcal/mol and -0.476 kcal/mol.
In the same order, the values of V34N (from UniProt P00974) are -0.148 kcal/mol, 1.97 kcal/mol and 0.00546 kcal/mol.
On to V34P (from UniProt P00974), for which the ddG was -0.316 kcal/mol in assay [1], 2.1 kcal/mol in assay [2] and 0.24 kcal/mol in assay [3].
For V34Q (from UniProt P00974) the same measures were 1.02 kcal/mol, 3.08 kcal/mol and 0.443 kcal/mol.
Consider V34R (from UniProt P00974), for which the ddG in assay [1] is 1.31 kcal/mol; in assay [2], 3.16 kcal/mol; in assay [3], 0.187 kcal/mol.
With V34S (from UniProt P00974), the ddG in assay [1] was -1.37 kcal/mol; in assay [2] it was 2.41 kcal/mol; in assay [3] it was 0.0912 kcal/mol.
For V34T (from UniProt P00974) the same measures were -1.06 kcal/mol, 2.72 kcal/mol and -0.433 kcal/mol.
In the same order, the values of V34W (from UniProt P00974) are 0.719 kcal/mol, 2.39 kcal/mol and -0.713 kcal/mol.
For the substance V34Y (from UniProt P00974), the ddG in assay [1] is 0.199 kcal/mol; in assay [2], 2.17 kcal/mol; in assay [3] it was -1.25 kcal/mol.
In the same order, the values of Y35A (from UniProt P00974) are 1.8 kcal/mol, 3.56 kcal/mol and 0.553 kcal/mol.
In the same order, the values of Y35C (from UniProt P00974) are 1.91 kcal/mol, 8.29 kcal/mol and 2.82 kcal/mol.
For Y35D (from UniProt P00974) the same measures were 1.49 kcal/mol, 4.92 kcal/mol and 2.69 kcal/mol.
As to Y35E (from UniProt P00974), the ddG worked out at 2.27 kcal/mol in assay [1], 5.62 kcal/mol in assay [2] and 3.78 kcal/mol in assay [3].
As to Y35F (from UniProt P00974), the values for the ddG in assay [1], in assay [2] and in assay [3] were -0.277 kcal/mol, 0.809 kcal/mol and -0.43 kcal/mol, respectively.
For Y35G (from UniProt P00974) the same measures were 2.1 kcal/mol, 3.38 kcal/mol and 5.16 kcal/mol.
For Y35H (from UniProt P00974) the same measures were -0.258 kcal/mol, 2.39 kcal/mol and 0.0159 kcal/mol.
For Y35I (from UniProt P00974) the same measures were 1.67 kcal/mol, 6.05 kcal/mol and 3.74 kcal/mol.
For the substance Y35K (from UniProt P00974), the figures for the ddG in assay [1], in assay [2] and in assay [3] were 1.71 kcal/mol, 7.81 kcal/mol and 5.08 kcal/mol, respectively.
In the same order, the values of Y35L (from UniProt P00974) are 2.03 kcal/mol, 5.1 kcal/mol and 1.65 kcal/mol.
Consider Y35M (from UniProt P00974), for which the ddG in assay [1] worked out at 0.926 kcal/mol; in assay [2], 2.52 kcal/mol; in assay [3] it was 0.301 kcal/mol.
For Y35N (from UniProt P00974) the same measures were 1.74 kcal/mol, 3.43 kcal/mol and 1.56 kcal/mol.
Y35P (from UniProt P00974): the results for the ddG in assay [1], in assay [2] and in assay [3] were 1.68 kcal/mol, 7.23 kcal/mol and 3.82 kcal/mol, respectively.
